This note sets out measurements from PMC4494010 (The Journal of Cell Biology, 2015).

In one assay the target is CENP-C^[…] (human). Nature of the assay: cross-linking.
A further assay has as its target GST–CENP-C^[…] (human). Put plainly: pull-down.

B1: CENP-HK complex (complex, human)
chain 1: MEEQPQMQDADEPADSGGEGRAGGPPQVAGAQAACSEDRMTLLLRLRAQTKQQLLEYKSMVDASEEKTPEQIMQEKQIEAKIEDLENEIEEVKVAFEIKKLALDRMRLSTALKKNLEKISRQSSVLMDNMKHLLELNKLIMKSQQESWDLEEKLLDIRKKRLQLKQASESKLLEIQTEKNKQKIDLDSMENSERIKIIRQNLQMEIKITTVIQHVFQNLILGSKVNWAEDPALKEIVLQLEKNVDMM
chain 2: MNQEDLDPDSTTDVGDVTNTEEELIRECEEMWKDMEECQNKLSLIGTETLTDSNAQLSLLIMQVKCLTAELSQWQKKTPETIPLTEDVLITLGKEEFQKLRQDLEMVLSTKESKNEKLKEDLEREQRWLDEQQQIMESLNVLHSELKNKVETFSESRIFNELKTKMLNIKEYKEKLLSTLGEFLEDHFPLPDRSVKKKKKNIQESSVNLITLHEMLEILINRLFDVPHDPYVKISDSFWPPYVELLLRNGIALRHPEDPTRIRLEAFHQ
Turning to B1, the binding result in the assay with CENP-C^[…] and in the assay with GST–CENP-C^[…] was “binds” throughout.
